Data: PMC4403811, “Efficient Cargo Delivery into Adult Brain Tissue Using Short Cell-Penetrating Peptides” (PLoS ONE, 2015)

Assays:
[1] = test system: adult zebrafish brain (telencephalic hemisphere); experiment: Peptide translocation area in the telencephalon after CVMI (fluorescein IHC); conditions: 5(6)-carboxyfluorescein-labelled peptide, fluorescein IHC at 1 dpi, n = 3, mean ± s.e.m.
Procedure: (§1) Cerebroventricular microinjections (CVMI) were executed as described in [7, 8]. Fish were anesthetized using MESAB (0.01%) and an incision placed above the optic tectum with a fine needle (Becton Dickinson Biosciences). Through this hole a glass capillary is inserted and the liquid disperses evenly throughout the cerebroventricular fluid upon high pressure injection.
(§2) Fish were sacrificed 1 day post injection and heads fixed over night at 4°C in 2% PFA. Thereafter heads were transferred to 20% Sucrose-EDTA in […] phosphate buffer, pH 7.5. For cryosectioning embedding in Sucrose(20%)-Gelatine (7.5%) on dry ice was done and heads stored at -80°C. 12 μm cryosections were cut using a cryostat microtome and stored at -20°C.
Stainings were performed as previously described in [36, 43]. Yet after the first washing step a 6 min citrate buffer treatment at 85°C was done. Primary antibodies were sheep anti-fluorescein AP (1:4000, Roche), mouse anti-PCNA (1:500, Dako Cyto) and rabbit anti L-Plastin (Lcp1, 1:7500, a kind gift from Michael Redd, University of Utah, Salt Lake City, UT, USA), they were diluted in PBS. They were incubated at 4°C overnight and secondary antibodies for 30 min at room temperature. Secondary antibodies were Alexa anti-rabbit and anti-mouse 488, 555 (1:500, Molecular probes). FastRed stainings were carried out using Fast Red TR/Naphtol AS-MX tablets (Sigma), according to manufacturer's instructions. Lastly sections were washed using PBSTx and mounted. All immunohistochemical stainings were done on at least five individuals.
(§3) Images were acquired using an inverted Zeiss AxioImager Z1. Only sections between the caudal end of the olfactory bulb and anterior commissure were counted. The quantification of the average translocation range was done using the AxioVision free hand surface area measurement tool. The area showing anti-fluorescein staining in the left hemisphere was measured against the total this telencephalic hemisphere, based on color thresholds against control images. […]

[2] = test system: adult zebrafish brain (telencephalon)
Procedure: as §1, §2
TUNEL stainings of sections were carried out using the ApoTag Red In Situ apoptosis Detection Kit (Chemicon International). Stainings were performed according to manufacturer’s instructions and positive and negative controls were included.
Images were acquired using an inverted Zeiss AxioImager Z1. Only sections between the caudal end of the olfactory bulb and anterior commissure were counted. The quantification of the average translocation range was done using the AxioVision free hand surface area measurement tool. The area showing anti-fluorescein staining in the left hemisphere was measured against the total this telencephalic hemisphere, based on color thresholds against control images. The statistical evaluation was performed using GraphPad Prism (Version 6.02) for one-way ANOVA followed by a Tukey’s post-hoc test and for Student’s T-Test. Error bars shown are the s.e.m. and asterisks indicate significance according to: *: p0.05, **: p0.01, ***: p0.001. p>0.05 is considered not significant.

[3] = test system: adult zebrafish brain (telencephalic hemispheres); experiment: Relative fluorescence levels in the telencephalic hemispheres after CVMI (surface plots); conditions: CVMI 100 μM, Fast-Red staining of cryosections, compared to control PolyD
Procedure: as §1, §2
(§4) Stainings were performed as previously described in [36, 43]. Yet after the first washing step a 6 min citrate buffer treatment at 85°C was done. […]
as §3

[4] = test system: adult zebrafish brain (telencephalon); experiment: L-Plastin immunohistochemistry for immune response (leukocytes/microglia) after peptide CVMI; conditions: CVMI at 150 μM and 200 μM, n = 4
Procedure: as §1, §2, §4, §3

[5] = test system: adult zebrafish brain (ventricular progenitor cells); conditions: CVMI 200 μM, PCNA IHC
Procedure: as §1, §2, §4, §3

[6] = injection concentration 100 μM, stained area vs total hemisphere

Row | Substance | average area of peptide translocation in one telencephalic hemisphere [1, 6] | average area of peptide translocation in one telencephalic hemisphere ([1]; injection concentration 200 μM) | number of TUNEL-positive (apoptotic) cells ([2]; CVMI 200 μM, 1 dpi, per telencephalic hemisphere per section, n = 3) | increase in number of TUNEL-positive cells compared to a stabbed hemisphere ([2]; CVMI 200 μM, 1 dpi, stab-lesioned hemisphere 27 ± 4 TUNEL-positive cells) | cell death response (TUNEL-positive cells) compared to PolyD control ([2]; CVMI at 150 μM and 200 μM, statistically significant, n = 4) | relative fluorescence levels in the telencephalic hemispheres (level of peptide translocated to deep tissues) [3] | immune response (L-Plastin-positive cells) compared to PolyD control [4] | decrease in proliferating cells compared to control and PolyR injected brains [5]
1 | Transportan | 70 ± 4% | 58 ± 6% | statistically significant and dramatic increase in apoptotic cells | 3 fold | increased levels of TUNEL-positive cells | significantly elevated levels of penetration | increased numbers of immune cells | ~50%
2 | Antennapedia [Antp] | did not show any penetration |  |  |  |  |  |  | 
